Earlier results on two substances are cited in US20130209985A1, “SAMPLE COLLECTION DEVICES WITH BLOOD STABILIZING AGENTS” (priority 2012, published 2013).

Amino acid sequences for entries named in this document (tags omitted). A change or cut given only in a name is not applied to a line headed by its entry.
UniProt P22303: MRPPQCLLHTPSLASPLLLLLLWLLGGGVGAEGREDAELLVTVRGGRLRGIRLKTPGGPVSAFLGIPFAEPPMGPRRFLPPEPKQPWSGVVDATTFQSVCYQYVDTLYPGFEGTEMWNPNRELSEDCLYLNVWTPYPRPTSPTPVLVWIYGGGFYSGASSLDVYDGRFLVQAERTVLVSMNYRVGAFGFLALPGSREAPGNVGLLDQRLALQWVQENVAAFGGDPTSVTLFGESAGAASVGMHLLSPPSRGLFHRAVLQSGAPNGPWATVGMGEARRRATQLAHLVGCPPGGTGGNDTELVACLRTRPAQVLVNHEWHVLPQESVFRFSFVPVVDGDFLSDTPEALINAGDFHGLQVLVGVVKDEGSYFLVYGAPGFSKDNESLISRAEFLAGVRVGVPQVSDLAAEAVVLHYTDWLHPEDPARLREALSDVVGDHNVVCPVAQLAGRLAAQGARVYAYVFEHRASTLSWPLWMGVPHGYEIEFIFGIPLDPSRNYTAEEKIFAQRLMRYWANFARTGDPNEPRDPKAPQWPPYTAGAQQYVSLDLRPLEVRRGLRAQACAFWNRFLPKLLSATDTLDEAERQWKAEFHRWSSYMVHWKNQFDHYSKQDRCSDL

For the series, the target named is acetylcholinesterase (AChE) (Homo sapiens, UniProt P22303). To be noted: read-out: Ki for AChE; reported literature values; cited from earlier work.

Usually Ki stands for a measure of affinity in units of concentration, obtained from inhibition or displacement. Regarding “(9E)-N1-(7-(1,2,3,4-Tetrahydroacridin-9-ylamino)heptyl)-9-ethylidene-7-methylbicyclo[3.3.1]non-6-ene-1,3-diamine”, the Ki was 15.7 nM.
As for “(9E)-N1-(7-(1,2,3,4-Tetrahydroacridin-9-ylamino)heptyl)-9-ethylidene-4,4,7-trimethylbicyclo[3.3.1]non-6-ene-1,3-diamine”, the Ki was 16.5 nM.
